One experiment deals with T1, C3a receptor (C3aR) (Homo sapiens, UniProt Q16581).
T1 construct: peripheral blood mononuclear cells were isolated from buffy coat (obtained from Australian Red Cross Blood Service, Kelvin Grove); endogenous in cells; host or cells: primary human monocyte-derived macrophages (HMDM) differentiated from CD14+ monocytes of donor buffy coat
T1 sequence (Q16581 1-482): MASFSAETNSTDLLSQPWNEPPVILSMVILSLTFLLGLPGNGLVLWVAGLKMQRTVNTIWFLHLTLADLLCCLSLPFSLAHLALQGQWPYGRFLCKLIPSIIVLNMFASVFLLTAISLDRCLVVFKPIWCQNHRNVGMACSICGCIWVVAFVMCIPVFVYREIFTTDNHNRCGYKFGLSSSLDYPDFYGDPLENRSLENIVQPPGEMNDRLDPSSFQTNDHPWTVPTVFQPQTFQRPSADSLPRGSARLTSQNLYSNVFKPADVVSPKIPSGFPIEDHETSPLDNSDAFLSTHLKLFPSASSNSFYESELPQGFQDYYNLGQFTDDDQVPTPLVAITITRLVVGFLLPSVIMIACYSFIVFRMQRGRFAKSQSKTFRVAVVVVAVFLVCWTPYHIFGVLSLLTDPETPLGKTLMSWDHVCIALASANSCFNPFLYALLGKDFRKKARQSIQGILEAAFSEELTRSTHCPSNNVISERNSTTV
Nature of the experiment: Competitive binding with [^125I]-C3a in HMDM. The settings on record: for -Log IC50: Table 14, binding affinity for C3aR on HMDM. The text has this:
For HMDM, peripheral blood mononuclear cells were isolated from buffy coat (obtained from Australian Red Cross Blood Service, Kelvin Grove) using Ficoll-paque density centrifugation (GE Healthcare Bio-Science, Uppsala, Sweden). CD^14+ monocytes were positively selected using CD^14+ MACS magnetic beads (Miltenyi Biotech, Auburn, Calif., USA). […] Cells were harvested by gentle scraping in saline solution and replated for use on Day 7. […] Unbound radioactivity was removed by filtration through glass microfiber filters GF/B (Whatman Iner. […] The filter was washed 3 times with cold buffer (50 mM Tris-HCl) pH 7.4. […] The −log IC50 for each compound was calculated for separate experiments and express as an arithmetic mean standard error (SE). IC50 values were expressed as a geometric mean.

For the next experiment, the target named is T2, C3aR (Homo sapiens, UniProt Q16581).
T2 construct: peripheral blood mononuclear cells were isolated from buffy coat (obtained from Australian Red Cross Blood Service, Kelvin Grove); endogenous in cells; host or cells: primary human monocyte-derived macrophages (HMDM) differentiated from CD14+ monocytes of donor buffy coat
T2 sequence (Q16581 1-482): T1 sequence (Q16581 1-482)
Nature of the experiment: Calcium mobilization assay in HMDM (agonist/antagonist activity). The class given is cell-based. Here is the method:
Harvested HMDM cells were washed with 0.9% NaCl solution by centrifugation at 2500 rpm for 5 min, followed by resuspension of the cell pellet with complete media. Cells were seeded at 5×10^4 cells/well in a 96-well black-wall, clear bottom plate (DKSH, Zurich), and left overnight to adhere at 37° C. On the day of the experiment, supernatant was removed and cells were incubated in dye loading buffer (Hank's Balanced Salt Solution (HBSS) with 4 μM Fluo-3, 25 μL pluronic acid, 1% fetal bovine serum (FBS) and 2.5 mM probenecid) for one hour at 37° C. Cells were then washed twice with HBSS and transferred to a Fluorostar spectrofluorimeter (BMG, Durham N.C.) for oxazole compound injection and fluorescence measurements.
Various compounds were examined in the calcium mobilization assay for agonist or antagonist activity compared to hC3a and to the known antagonist SB290157.
HMDMs were seeded into black-wall, clear bottom 96-well plates (Corning Incorporated, NY) at 50,000 cells/well and left to incubate at 37° C. with 5% CO2 overnight for cells to adhere. The medium was removed before being washed with the assay buffer (1×HBSS, 20 mM HEPES, 2.5 mM probenecid, pH 7.4). To each well was added 100 μL of dye-loading buffer made up of 12 mL calcium buffer, 1% FBS, 25 μL of Fluo-3 dye (final concentration of 4 μM) and 25 μL of 20% pluronic acid. […] To each well was added 50 μL of fresh assay buffer before the plate was loaded into a FLIPR (Fluorescent Imaging Plate Reader) that can inject treatments and measure any calcium release. To generate agonist plots, calcium release was monitored for 300 seconds. To generate antagonist plots, calcium release was recorded for 900 seconds, which at the same time would allow incubation for the antagonists. After the initial incubation period, an agonist would be added and the response was recorded for 300 seconds. Intracellular release of calcium was recorded via fluorescence measurements at wavelength of 485 nm for excitation and 520 nm for emission.
On the technique in general: A change in cytosolic calcium serves as a functional read-out for many receptors and channels.

Read-outs that look alike come from different tables or passages of the source.

Here are results for two molecules from patent publication US9586914B2, “Modulators of C3a receptors” (THE UNIVERSITY OF QUEENSLAND, priority 2011, dated 2017).

In general, EC50 refers to the concentration at which the effect is half-maximal. Turning to `N=C(N)NCCC[C@H](NC(=O)c1ccc(C(c2ccccc2)c2ccccc2)o1)C(=O)O` [Compound 57, 5-Diphenylmethyl-furan-2-carboxyl-Arg-OH], the IC50 on C3a receptor (C3aR) (Table 6, competitive binding with [^125I]-C3a, HMDM, read-out: IC50 (converted)) was 1.3 µM; on C3a receptor (C3aR) (Table 6, competitive binding with [^125I]-C3a, HMDM, read-out: pIC50 ± SEM (converted)), 1.32 µM; at C3a receptor (C3aR) (Table 8, HMDM, read-out: Receptor Binding Affinity ^125I IC50), 0.302 µM; at C3a receptor (C3aR) (Table 12, read-out: Receptor Binding Affinity IC50) it was 1.3 µM; at C3a receptor (C3aR) (Table 12, read-out: Receptor Binding Affinity pIC50 ± SE (converted)), 1.32 µM; on C3aR (Table 10, HMDM, read-out: Antagonist Activity Ca^2+ IC50) it was 1.8 µM. At C3a receptor (C3aR), the “-Log IC50” value amounted to 7.3. Further, the EC50 amounted to 0.645 µM on C3aR (Table 9, Ca^2+ mobilization, HMDM, read-out: EC50) and 0.645 µM at C3aR (Table 12, read-out: Apparent Agonist Activity EC50).

For `N=C(N)NCCC[C@H](NC(=O)c1cnc(C(c2ccccc2)c2ccccc2)[nH]1)C(=O)O` [Compound 77, 2-Diphenylmethyl-thiazole-4-carboxyl-Arg-OH], the “-Log IC50” value on C3a receptor (C3aR) turned out to be 8.2.
